{"source": "patent US20150258192A1", "about": "“COMPOSITIONS AND METHODS FOR PREVENTING OR TREATING CHRONIC LUNG ALLOGRAFT DYSFUNCTION (CLAD) AND IDIOPATHIC PULMONARY FIBROSIS (IPF)” (priority 2014, published 2015)", "test_in_all_cases": "Kinase Profiling Assay", "format_in_all_cases": "biochemical", "details_in_all_cases": "peptide 100 μM", "key": {"Abl(H396P)(h)": {"biological_target": "Abl(H396P)(h) (Homo sapiens, UniProt P00519, H396P)", "method": "(§1) Every kinase activity measurement was conducted in duplicate.\n(§2) Specifically, in these assays, a positively charged substrate is phosphorylated with a radiolabeled phosphate group from an ATP if the kinase is not inhibited by an inhibitor peptide. The positively charged substrate then is attracted to a negatively charged filter membrane, quantified with a scintillation counter, and compared to a 100% activity control.\n(§3) In addition to determining the IC50 of the compound, the specificity of MK2 inhibitory peptides was assessed by examining activities of all 266 human kinases available for testing in the Millipore kinase profiling service (Table 1)."}, "Abl(M351T)(h)": {"biological_target": "Abl(M351T)(h) (Homo sapiens, UniProt P00519, M351T)", "method": "as §1, §2, §3"}, "Abl(T315I)(h)": {"biological_target": "Abl(T315I)(h) (Homo sapiens, UniProt P00519, T315I)", "method": "as §1, §2, §3"}, "Aurora-A(h)": {"biological_target": "T1, Aurora-A(h) (Homo sapiens, UniProt O14965)", "T1 sequence (O14965 1-403)": "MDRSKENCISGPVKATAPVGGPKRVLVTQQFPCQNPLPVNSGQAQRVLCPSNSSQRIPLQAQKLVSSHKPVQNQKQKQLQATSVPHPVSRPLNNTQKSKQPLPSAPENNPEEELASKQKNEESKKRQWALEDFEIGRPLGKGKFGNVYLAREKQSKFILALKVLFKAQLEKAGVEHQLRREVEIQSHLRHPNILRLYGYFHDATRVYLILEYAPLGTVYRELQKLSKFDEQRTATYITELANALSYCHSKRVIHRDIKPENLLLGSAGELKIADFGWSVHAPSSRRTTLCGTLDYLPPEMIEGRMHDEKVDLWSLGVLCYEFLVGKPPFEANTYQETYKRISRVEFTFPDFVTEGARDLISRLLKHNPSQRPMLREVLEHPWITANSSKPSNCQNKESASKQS", "method": "as §1, §2, §3"}, "CK1γ1(h)": {"biological_target": "CK1γ1(h) (Homo sapiens, UniProt Q9HCP0)", "method": "as §1, §2, §3"}, "CK1γ2(h)": {"biological_target": "CK1γ2(h) (Homo sapiens, UniProt P78368)", "method": "as §1, §2, §3"}, "CK1γ3(h)": {"biological_target": "CK1γ3(h) (Homo sapiens, UniProt Q9Y6M4)", "method": "as §1, §2, §3"}, "CLK2(h)": {"biological_target": "CLK2(h) (Homo sapiens, UniProt P49760)", "method": "as §1, §2, §3"}, "FGFR2(N549H)(h)": {"biological_target": "FGFR2(N549H)(h) (Homo sapiens, UniProt P21802, N549H)", "method": "as §1, §2, §3"}, "HIPK3(h)": {"biological_target": "T2, HIPK3(h) (Homo sapiens, UniProt Q9H422)", "T2 construct": "purchased Millipore", "method": "as §1, §2, §3"}, "JAK2(h)": {"biological_target": "T3, JAK2(h) (Homo sapiens, UniProt O60674)", "T3 construct": "purchased Millipore", "method": "as §1, §2, §3"}, "Lck(h)": {"biological_target": "T4, Lck(h) (Homo sapiens, UniProt P06239)", "T4 construct": "purchased Millipore", "method": "as §1, §2, §3"}, "PAK3(h)": {"biological_target": "PAK3(h) (Homo sapiens, UniProt O75914)", "method": "as §1, §2, §3"}, "PAK5(h)": {"biological_target": "PAK5(h) (Homo sapiens, UniProt Q9P286)", "method": "as §1, §2, §3"}, "PAR-1Bα(h)": {"biological_target": "T5, PAR-1Bα(h) (Homo sapiens, UniProt Q7KZI7)", "T5 sequence (Q7KZI7 1-725 isoform Q7KZI7-4)": "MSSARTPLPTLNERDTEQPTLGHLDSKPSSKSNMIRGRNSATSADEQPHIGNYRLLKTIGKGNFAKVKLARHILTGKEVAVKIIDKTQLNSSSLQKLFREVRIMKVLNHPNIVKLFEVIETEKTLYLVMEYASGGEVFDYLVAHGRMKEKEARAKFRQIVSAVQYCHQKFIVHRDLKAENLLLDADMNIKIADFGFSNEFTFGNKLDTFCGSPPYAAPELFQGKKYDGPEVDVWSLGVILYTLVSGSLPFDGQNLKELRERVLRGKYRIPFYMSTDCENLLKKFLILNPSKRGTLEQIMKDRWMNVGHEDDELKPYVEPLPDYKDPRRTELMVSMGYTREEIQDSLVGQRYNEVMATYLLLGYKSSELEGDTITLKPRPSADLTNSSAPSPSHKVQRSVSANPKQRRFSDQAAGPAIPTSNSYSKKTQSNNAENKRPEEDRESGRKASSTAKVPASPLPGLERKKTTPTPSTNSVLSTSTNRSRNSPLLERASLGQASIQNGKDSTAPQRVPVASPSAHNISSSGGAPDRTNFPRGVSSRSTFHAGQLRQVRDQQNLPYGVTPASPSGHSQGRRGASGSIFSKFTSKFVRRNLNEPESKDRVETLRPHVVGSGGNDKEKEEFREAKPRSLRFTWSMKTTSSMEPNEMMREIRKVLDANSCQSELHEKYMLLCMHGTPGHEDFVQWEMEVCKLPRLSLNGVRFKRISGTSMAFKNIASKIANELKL", "method": "as §1, §2, §3"}, "PKA(h)": {"biological_target": "PKA(h) (Homo sapiens, UniProt P17612)", "method": "as §1, §2, §3"}, "Plk1(h)": {"biological_target": "Plk1(h) (Homo sapiens, UniProt P53350)", "method": "as §1, §2, §3"}, "c-RAF(h)": {"biological_target": "c-RAF(h) (Homo sapiens, UniProt P04049)", "method": "as §1, §2, §3"}, "CK2α2(h)": {"biological_target": "CK2α2(h) (Homo sapiens, UniProt P19784)", "method": "as §1, §2, §3"}, "FGFR1(V561M)(h)": {"biological_target": "FGFR1(V561M)(h) (Homo sapiens, UniProt P11362, V561M)", "method": "as §1, §2, §3"}, "Fgr(h)": {"biological_target": "Fgr(h) (Homo sapiens, UniProt P09769)", "method": "as §1, §2, §3"}, "GRK5(h)": {"biological_target": "T6, GRK5(h) (Homo sapiens, UniProt P34947)", "T6 construct": "purchased Millipore", "method": "as §1, §2, §3"}, "IGF-1R(h)": {"biological_target": "T7, IGF-1R(h) (Homo sapiens, UniProt P08069)", "T7 construct": "purchased Millipore", "method": "as §1, §2, §3"}, "JNK1α1(h)": {"biological_target": "T8, JNK1α1(h) (Homo sapiens, UniProt P45983)", "T8 construct": "purchased Millipore", "method": "as §1, §2, §3"}, "MKK7β(h)": {"biological_target": "T9, MKK7β(h) (Homo sapiens, UniProt O14733)", "T9 construct": "purchased Millipore", "T9 sequence (O14733 1-419)": "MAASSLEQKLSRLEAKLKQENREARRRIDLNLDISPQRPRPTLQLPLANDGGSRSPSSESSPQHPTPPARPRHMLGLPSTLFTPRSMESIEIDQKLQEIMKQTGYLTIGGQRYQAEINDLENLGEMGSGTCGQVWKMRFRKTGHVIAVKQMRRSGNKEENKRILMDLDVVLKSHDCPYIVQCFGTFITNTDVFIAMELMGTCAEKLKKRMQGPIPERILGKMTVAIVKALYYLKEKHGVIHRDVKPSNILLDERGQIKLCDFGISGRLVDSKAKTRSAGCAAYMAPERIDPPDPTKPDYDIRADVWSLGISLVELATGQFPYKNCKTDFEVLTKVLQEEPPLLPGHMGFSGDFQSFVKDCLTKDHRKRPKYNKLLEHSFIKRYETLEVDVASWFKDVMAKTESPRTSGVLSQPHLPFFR", "method": "as §1, §2, §3"}, "PAK6(h)": {"biological_target": "PAK6(h) (Homo sapiens, UniProt Q9NQU5)", "method": "as §1, §2, §3"}}}
{"sequence": "KAFAKLAARLYRKALARQLGVAA [MMI-0400]", "values": [{"measurement": "% activity", "setting": "Abl(H396P)(h)", "result": 105, "unit": "%"}, {"measurement": "% activity", "setting": "Abl(M351T)(h)", "result": 121, "unit": "%"}, {"measurement": "% activity", "setting": "Abl(T315I)(h)", "result": 105, "unit": "%"}, {"measurement": "% activity", "setting": "Aurora-A(h)", "result": 119, "unit": "%"}, {"measurement": "% activity", "setting": "CK1γ1(h)", "result": 116, "unit": "%"}, {"measurement": "% activity", "setting": "CK1γ2(h)", "result": 114, "unit": "%"}, {"measurement": "% activity", "setting": "CK1γ3(h)", "result": 115, "unit": "%"}, {"measurement": "% activity", "setting": "CLK2(h)", "result": 116, "unit": "%"}, {"measurement": "% activity", "setting": "FGFR2(N549H)(h)", "result": 112, "unit": "%"}, {"measurement": "% activity", "setting": "HIPK3(h)", "result": 105, "unit": "%"}, {"measurement": "% activity", "setting": "JAK2(h)", "result": 119, "unit": "%"}, {"measurement": "% activity", "setting": "Lck(h)", "result": 228, "unit": "%"}, {"measurement": "% activity", "setting": "PAK3(h)", "result": 121, "unit": "%"}, {"measurement": "% activity", "setting": "PAK5(h)", "result": 117, "unit": "%"}, {"measurement": "% activity", "setting": "PAR-1Bα(h)", "result": 109, "unit": "%"}, {"measurement": "% activity", "setting": "PKA(h)", "result": 119, "unit": "%"}, {"measurement": "% activity", "setting": "Plk1(h)", "result": 119, "unit": "%"}, {"measurement": "% activity", "setting": "c-RAF(h)", "result": 102, "unit": "%"}]}
{"sequence": "HRRIKAWLKKIKALARQLGVAA (Mammal) [MMI-0500]", "values": [{"measurement": "% activity", "setting": "CK1γ1(h)", "result": 109, "unit": "%"}, {"measurement": "% activity", "setting": "CK1γ2(h)", "result": 119, "unit": "%"}, {"measurement": "% activity", "setting": "CK1γ3(h)", "result": 114, "unit": "%"}, {"measurement": "% activity", "setting": "CK2α2(h)", "result": 103, "unit": "%"}, {"measurement": "% activity", "setting": "FGFR1(V561M)(h)", "result": 113, "unit": "%"}, {"measurement": "% activity", "setting": "FGFR2(N549H)(h)", "result": 105, "unit": "%"}, {"measurement": "% activity", "setting": "Fgr(h)", "result": 109, "unit": "%"}, {"measurement": "% activity", "setting": "GRK5(h)", "result": 116, "unit": "%"}, {"measurement": "% activity", "setting": "IGF-1R(h)", "result": 117, "unit": "%"}, {"measurement": "% activity", "setting": "JNK1α1(h)", "result": 109, "unit": "%"}, {"measurement": "% activity", "setting": "MKK7β(h)", "result": 102, "unit": "%"}, {"measurement": "% activity", "setting": "PAK6(h)", "result": 107, "unit": "%"}, {"measurement": "% activity", "setting": "Plk1(h)", "result": 104, "unit": "%"}]}
